Target: PI3Kβ (p110β/p85α) (Homo sapiens, UniProt P42338)
Assay: In vitro PI3K activity assay
Type: biochemical

Protein sequences, listed by entry. Tags and fused reporters are not part of them. Lines headed by an entry give the natural chain unless they say otherwise; changes in a name come on top.
UniProt P42338: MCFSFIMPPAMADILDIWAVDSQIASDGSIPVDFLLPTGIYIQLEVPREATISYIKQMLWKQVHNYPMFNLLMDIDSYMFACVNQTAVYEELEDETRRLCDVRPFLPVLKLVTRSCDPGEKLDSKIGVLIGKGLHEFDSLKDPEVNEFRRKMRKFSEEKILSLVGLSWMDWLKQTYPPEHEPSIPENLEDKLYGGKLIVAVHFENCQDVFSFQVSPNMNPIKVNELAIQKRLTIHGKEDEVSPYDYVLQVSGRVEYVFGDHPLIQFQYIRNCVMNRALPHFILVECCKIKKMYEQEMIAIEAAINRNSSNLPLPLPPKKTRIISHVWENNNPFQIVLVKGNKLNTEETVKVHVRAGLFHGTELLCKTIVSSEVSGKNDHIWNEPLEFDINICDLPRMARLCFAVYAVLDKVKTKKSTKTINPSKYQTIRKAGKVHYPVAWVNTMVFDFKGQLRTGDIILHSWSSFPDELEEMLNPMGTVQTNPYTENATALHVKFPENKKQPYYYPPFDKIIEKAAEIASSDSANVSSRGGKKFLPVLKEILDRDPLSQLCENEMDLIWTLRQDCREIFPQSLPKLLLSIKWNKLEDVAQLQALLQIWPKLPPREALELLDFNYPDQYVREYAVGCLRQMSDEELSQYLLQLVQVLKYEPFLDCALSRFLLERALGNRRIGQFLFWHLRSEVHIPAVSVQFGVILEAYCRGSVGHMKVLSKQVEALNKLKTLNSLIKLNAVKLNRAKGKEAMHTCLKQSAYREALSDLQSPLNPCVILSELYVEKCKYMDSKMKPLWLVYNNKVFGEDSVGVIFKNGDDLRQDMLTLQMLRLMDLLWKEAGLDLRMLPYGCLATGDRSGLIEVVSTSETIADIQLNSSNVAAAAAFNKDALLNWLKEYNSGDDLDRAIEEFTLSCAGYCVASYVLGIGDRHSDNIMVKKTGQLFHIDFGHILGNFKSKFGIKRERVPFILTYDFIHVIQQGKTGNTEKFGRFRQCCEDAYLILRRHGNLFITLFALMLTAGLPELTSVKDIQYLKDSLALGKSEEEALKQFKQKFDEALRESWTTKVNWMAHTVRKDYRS

IC50: 38 ± 2 nM
Structure (SMILES): O=c1cc(N2CCOCC2)oc2c(-c3ccccc3)cccc12 [LY294002, reference compound]

From paper PMC10548181 (RSC Advances, 2023)
